{
  "source": "patent EP0417558A2",
  "about": "“S-haloalkyl(di)(tri)(thio)phosphoric(phosphonic)acid(amide) esters” (dated 1991)",
  "key": {"[1]": {"system": "Lucilia cuprina resistent-Larven", "experiment": "Test with resistant Lucilia cuprina larvae", "conditions": "1000 ppm; after 24 h"}, "Musca domestica": {"system": "Musca domestica", "experiment": "Impregnated filter paper test with flies (Example C)", "conditions": "1000 ppm, adults on impregnated filter paper"}, "Blattella germanica": {"system": "Blattella germanica", "experiment": "Impregnated filter paper test with cockroaches (Example C)", "conditions": "1000 ppm; Blatella germanica; adults on impregnated filter paper"}, "Sitophilus granarius": {"system": "Sitophilus granarius", "experiment": "Impregnated filter paper test with grain weevils (Example C)", "conditions": "1000 ppm, adults on impregnated filter paper"}},
  "data": [
    {"smiles": "CCOP(=S)(NC(C)C)SC(C)(F)F", "note": "(racemic)", "values": [
      {"measurement": "Abtötungsgrad", "setting": "[1]", "value": 100, "unit": "%"},
      {"measurement": "Wirkung", "setting": "Musca domestica", "value": 100, "unit": "%"},
      {"measurement": "Wirkung", "setting": "Blattella germanica", "value": 100, "unit": "%"},
      {"measurement": "Wirkung", "setting": "Sitophilus granarius", "value": 100, "unit": "%"}
    ]},
    {"smiles": "CCOP(=S)(SC(C)(F)F)N(C)C", "note": "(racemic)", "values": [
      {"measurement": "Abtötungsgrad", "setting": "[1]", "value": 100, "unit": "%"}
    ]}
  ]
}
